{
  "source": "paper PMC11446596",
  "about": "(Critical Care Explorations, 2024)",
  "origin": "cited, not measured here",
  "details": "critically ill children; 20 kg, eGFR 141 mL/min/1.73 m^2; cited from earlier work",
  "data": [
    {"smiles": "CN[C@H](CC(C)C)C(=O)N[C@H]1C(=O)N[C@@H](CC(N)=O)C(=O)N[C@H]2C(=O)N[C@H]3C(=O)N[C@H](C(=O)N[C@H](C(=O)O)c4cc(O)cc(O)c4-c4cc3ccc4O)[C@H](O)c3ccc(c(Cl)c3)Oc3cc2cc(c3O[C@@H]2O[C@H](CO)[C@@H](O)[C@H](O)[C@H]2O[C@H]2C[C@](C)(N)[C@H](O)[C@H](C)O2)Oc2ccc(cc2Cl)[C@H]1O", "note": "[vancomycin]", "values": [
      {"measurement": "Clearance reported by Downes et al", "value": 2.64, "unit": "L/h"}
    ]}
  ]
}
